# Source: paper PMC8903829 (eLife, 2022)
# Chains of the proteins cited; added tags and fusions are not shown.
# UniProt Q14524, whole entry: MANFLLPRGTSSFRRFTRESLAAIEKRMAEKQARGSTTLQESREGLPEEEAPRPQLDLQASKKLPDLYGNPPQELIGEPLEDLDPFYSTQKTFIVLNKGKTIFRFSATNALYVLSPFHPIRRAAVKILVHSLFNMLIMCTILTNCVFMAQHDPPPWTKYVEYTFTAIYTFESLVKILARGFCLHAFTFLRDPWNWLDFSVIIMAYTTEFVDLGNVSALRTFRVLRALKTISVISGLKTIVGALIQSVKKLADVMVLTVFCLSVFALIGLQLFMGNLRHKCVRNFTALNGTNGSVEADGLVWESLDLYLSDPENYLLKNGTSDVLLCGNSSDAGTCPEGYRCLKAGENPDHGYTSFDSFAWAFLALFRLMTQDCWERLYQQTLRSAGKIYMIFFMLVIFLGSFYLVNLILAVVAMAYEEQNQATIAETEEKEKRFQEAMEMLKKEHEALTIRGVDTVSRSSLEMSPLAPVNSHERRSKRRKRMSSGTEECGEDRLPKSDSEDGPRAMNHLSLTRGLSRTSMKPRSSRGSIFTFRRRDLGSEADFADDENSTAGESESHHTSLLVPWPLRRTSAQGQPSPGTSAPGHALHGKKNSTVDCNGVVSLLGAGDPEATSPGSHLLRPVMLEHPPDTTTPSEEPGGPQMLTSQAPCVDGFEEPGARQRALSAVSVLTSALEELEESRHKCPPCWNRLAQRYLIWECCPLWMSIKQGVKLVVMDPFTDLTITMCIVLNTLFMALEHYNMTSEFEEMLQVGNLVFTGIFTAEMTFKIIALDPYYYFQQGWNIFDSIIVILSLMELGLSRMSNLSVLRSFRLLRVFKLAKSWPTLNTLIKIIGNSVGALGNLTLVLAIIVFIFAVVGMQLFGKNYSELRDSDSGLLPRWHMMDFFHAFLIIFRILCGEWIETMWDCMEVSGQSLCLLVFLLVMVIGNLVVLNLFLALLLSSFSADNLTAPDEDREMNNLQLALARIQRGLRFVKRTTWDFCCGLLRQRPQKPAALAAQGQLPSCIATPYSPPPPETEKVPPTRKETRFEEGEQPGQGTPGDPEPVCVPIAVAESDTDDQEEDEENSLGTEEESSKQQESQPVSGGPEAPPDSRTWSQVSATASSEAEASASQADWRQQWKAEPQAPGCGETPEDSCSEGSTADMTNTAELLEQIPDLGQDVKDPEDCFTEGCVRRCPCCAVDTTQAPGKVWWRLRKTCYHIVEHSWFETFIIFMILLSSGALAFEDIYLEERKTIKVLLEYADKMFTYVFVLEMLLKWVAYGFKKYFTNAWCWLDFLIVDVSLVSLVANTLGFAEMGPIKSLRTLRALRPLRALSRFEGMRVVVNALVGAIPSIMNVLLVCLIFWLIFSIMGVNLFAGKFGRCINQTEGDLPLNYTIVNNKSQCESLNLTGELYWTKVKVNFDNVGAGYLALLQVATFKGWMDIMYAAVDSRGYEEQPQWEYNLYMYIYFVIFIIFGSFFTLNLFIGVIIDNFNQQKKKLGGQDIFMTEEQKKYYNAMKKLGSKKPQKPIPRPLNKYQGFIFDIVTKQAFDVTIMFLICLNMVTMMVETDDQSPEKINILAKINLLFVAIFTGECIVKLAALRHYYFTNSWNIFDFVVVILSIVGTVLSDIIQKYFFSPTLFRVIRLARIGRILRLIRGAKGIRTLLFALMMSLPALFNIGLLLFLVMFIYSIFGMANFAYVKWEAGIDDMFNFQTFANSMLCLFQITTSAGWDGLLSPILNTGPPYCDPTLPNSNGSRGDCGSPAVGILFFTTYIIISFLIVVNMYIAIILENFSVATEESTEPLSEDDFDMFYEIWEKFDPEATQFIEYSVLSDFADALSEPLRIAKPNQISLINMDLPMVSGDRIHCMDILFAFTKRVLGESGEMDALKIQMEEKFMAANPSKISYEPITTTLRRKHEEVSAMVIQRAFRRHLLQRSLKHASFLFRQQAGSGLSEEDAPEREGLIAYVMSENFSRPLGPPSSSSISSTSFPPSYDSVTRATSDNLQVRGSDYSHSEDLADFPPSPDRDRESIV
# Where “and” joins values, the source holds several entries; their conditions need not be identical. Equal entries are not always repeated.
# Assays:
# [1] = tested on: fast spiking interneurons; test: Current-clamp recording in brain slices, action-potential firing; format: cell-based, mouse; conditions: for effect on action-potential firing, fast-spiking interneurons: 100 µM carbamazepine; for Fast spiking interneurons APs/1s / Cumulative number of action potentials fired by each cell on increasing current injections: 100 μM; for Fast spiking interneurons APs/1s: individual neurons; for Cumulative number of action potentials fired by each cell on increasing current injections: fast spiking interneurons
# Procedure: (§1) Parasagittal cortical brain slices were prepared from> P21 mice using standard procedures (adapted from Tai et al., PNAS 2014). Briefly, the mouse was deeply anaesthetized with isoflurane and decapitated. The brain was removed and placed into chilled artificial cerebrospinal fluid (aCSF) solution containing (in mM): 125 NaCl, 25 NaHCO3, 2.5 KCl, 1.25 NaH2PO4, 2 CaCl2, 2 MgCl2, 10 d-glucose, pH 7.3, osmolarity adjusted to ~306 mOsm using sucrose. All solutions were saturated with 95% O2 and 5% CO2 constantly perfused with 95% O2/5% CO2. Slices with a thickness of 400 µm were prepared using a vibratome (Ted Pella, Inc). Following sectioning, the slices were placed in a holding chamber and incubated in a water bath at 34 °C for 15 min. The brain slices were removed from the water bath and held at room temperature for 60 min prior to recording.
# (§2) All experiments involving rodent subjects were performed in accordance with the guidelines of the Canadian Council on Animal Care (CCAC). Following a 60-min incubation at room temperature, a brain slice was selected and placed on the stage of an upright microscope (SliceScope Pro 2000, Scientifica). The slice was constantly perfused with room temperature aCSF, containing 0.1% DMSO as a vehicle control, and oxygenated with 95% O2/5% CO2.The slice was visualized using brightfield microscopy, and a healthy neuron was selected from neocortical layer 5. […] Stimulation was applied in current-clamp mode, and consisted of a series of 1000ms square pulses, beginning at –20 pA and increasing by +20 pA increments (3000ms between pulses).
# (§3) The slice was incubated in circulating compound for 10 min before repeating the series of square pulse stimulations. Working stock solutions were prepared in DMSO at a concentration of 20 mM.
# (§4) All data analysis was done offline using ClampFit 10.7 (Molecular Devices). Data are presented as a mean ± SEM. For each sweep, the number of evoked APs was counted, and plotted as a function of current injection (beginning with –20 pA). […] Statistical significance was assessed using paired, two-way, student’s t-test applied at each current injection level with significance considered p < 0.05.
# [2] = tested on: glutamatergic pyramidal neurons from mouse layer five neocortex; test: as above; format: cell-based; conditions: for effect on action-potential firing, pyramidal neurons: 100 µM carbamazepine; for Cumulative number of action potentials fired by each cell on increasing current injections / WT Cortical pyramidal neurons APs/1s: 100 μM; for Cumulative number of action potentials fired by each cell on increasing current injections: WT cortical pyramidal neurons; for WT Cortical pyramidal neurons APs/1s: individual neurons
# Procedure: as §1, §2, §3, §4
# [3] = biological target: T1, hNaV1.1 (Homo sapiens, UniProt P35498); test: Qube 384 automated patch-clamp, inactivated-state inhibition; format: cell-based; conditions: Vh -45 mV, HEK-293
# T1 construct: expression vector containing the full-length cDNA coding for specific human and mouse sodium channel α-subunit; expressed in transfected cells
# Source text: (§5) All of the cell lines tested negative for mycoplasma.
# (§6) Inorm(CPD)=(ICPD−Icontrol)/(ITTX−Icontrol).
# [4] = biological target: T2, hNaV1.5 (Homo sapiens, UniProt Q14524); test: as above; format: cell-based; conditions: Vh -60 mV, HEK-293
# T2 construct: expression vector containing the full-length cDNA coding for specific human and mouse sodium channel α-subunit; expressed in transfected cells
# Source text: as §5, §6
smiles,measurement,setting,value
"NC(=O)N1c2ccccc2C=Cc2ccccc21 [carbamazepine, Carbamazepine]","effect on action-potential firing, fast-spiking interneurons",[1],markedly reduced firing
same,"effect on action-potential firing, fast-spiking interneurons",[1]; listed as Carbamazepine,significantly inhibited action-potential firing
same,Fast spiking interneurons APs/1s,"[1]; 300 pA current injected, listed as CBZ",26 APs/1s and 30 APs/1s and 6 APs/1s
same,Fast spiking interneurons APs/1s,[1]; current injected 0 pA,0 APs/1s
same,Fast spiking interneurons APs/1s,[1]; current injected 20 pA,0 APs/1s
same,Fast spiking interneurons APs/1s,[1]; current injected 40 pA,0 APs/1s
same,Fast spiking interneurons APs/1s,[1]; current injected 60 pA,0 APs/1s
same,Fast spiking interneurons APs/1s,[1]; current injected 80 pA,0 APs/1s
same,Fast spiking interneurons APs/1s,[1]; current injected 100 pA,0 APs/1s
same,Fast spiking interneurons APs/1s,[1]; current injected 120 pA,1 APs/1s (2×) and 0 APs/1s
same,Fast spiking interneurons APs/1s,[1]; current injected 140 pA,2 APs/1s (2×) and 1 APs/1s
same,Fast spiking interneurons APs/1s,[1]; current injected 160 pA,6 APs/1s (2×) and 1 APs/1s
same,Fast spiking interneurons APs/1s,[1]; current injected 180 pA,10 APs/1s and 9 APs/1s and 1 APs/1s
same,Fast spiking interneurons APs/1s,[1]; current injected 200 pA,15 APs/1s and 16 APs/1s and 1 APs/1s
same,Fast spiking interneurons APs/1s,[1]; current injected 220 pA,15 APs/1s and 17 APs/1s and 2 APs/1s
same,Fast spiking interneurons APs/1s,[1]; current injected 240 pA,20 APs/1s and 21 APs/1s and 2 APs/1s
same,Fast spiking interneurons APs/1s,[1]; current injected 260 pA,23 APs/1s and 21 APs/1s and 3 APs/1s
same,Fast spiking interneurons APs/1s,[1]; current injected 280 pA,26 APs/1s and 24 APs/1s and 3 APs/1s
same,Fast spiking interneurons APs/1s,[1]; current injected 300 pA,26 APs/1s and 30 APs/1s and 6 APs/1s
same,Fast spiking interneurons APs/1s,[1]; current injected 320 pA,28 APs/1s and 27 APs/1s and 6 APs/1s
same,Fast spiking interneurons APs/1s,[1]; current injected 340 pA,28 APs/1s and 32 APs/1s and 7 APs/1s
same,Fast spiking interneurons APs/1s,[1]; current injected 360 pA,29 APs/1s and 32 APs/1s and 9 APs/1s
same,Fast spiking interneurons APs/1s,[1]; current injected 380 pA,30 APs/1s and 10 APs/1s
same,Fast spiking interneurons APs/1s,[1]; current injected 400 pA,27 APs/1s and 9 APs/1s
same,Fast spiking interneurons APs/1s,[1]; current injected 420 pA,31 APs/1s and 9 APs/1s
same,Fast spiking interneurons APs/1s,[1]; current injected 440 pA,30 APs/1s and 10 APs/1s
same,Fast spiking interneurons APs/1s,[1]; current injected -20 pA,0 APs/1s
same,Cumulative number of action potentials fired by each cell on increasing current injections,[1]; up to current injected 0 pA,0
same,Cumulative number of action potentials fired by each cell on increasing current injections,[1]; up to current injected 20 pA,0
same,Cumulative number of action potentials fired by each cell on increasing current injections,[1]; up to current injected 40 pA,0
same,Cumulative number of action potentials fired by each cell on increasing current injections,[1]; up to current injected 60 pA,0
same,Cumulative number of action potentials fired by each cell on increasing current injections,[1]; up to current injected 80 pA,0
same,Cumulative number of action potentials fired by each cell on increasing current injections,[1]; up to current injected 100 pA,0
same,Cumulative number of action potentials fired by each cell on increasing current injections,[1]; up to current injected -20 pA,0
same,"effect on action-potential firing, pyramidal neurons",[2],reduced action-potential spiking
same,"effect on action-potential firing, pyramidal neurons",[2]; listed as Carbamazepine,significantly inhibited action-potential firing
same,Cumulative number of action potentials fired by each cell on increasing current injections,[2]; up to current injected 0 pA,0
same,Cumulative number of action potentials fired by each cell on increasing current injections,[2]; up to current injected 20 pA,0
same,Cumulative number of action potentials fired by each cell on increasing current injections,[2]; up to current injected 40 pA,0
same,Cumulative number of action potentials fired by each cell on increasing current injections,[2]; up to current injected -20 pA,0
same,WT Cortical pyramidal neurons APs/1s,[2]; current injected 0 pA,0 APs/1s
same,WT Cortical pyramidal neurons APs/1s,[2]; current injected 20 pA,0 APs/1s
same,WT Cortical pyramidal neurons APs/1s,[2]; current injected 40 pA,0 APs/1s
same,WT Cortical pyramidal neurons APs/1s,[2]; current injected 60 pA,0 APs/1s and 3 APs/1s and 1 APs/1s (2×)
same,WT Cortical pyramidal neurons APs/1s,[2]; current injected 80 pA,2 APs/1s (2×) and 5 APs/1s and 3 APs/1s
same,WT Cortical pyramidal neurons APs/1s,[2]; current injected 100 pA,2 APs/1s and 7 APs/1s and 3 APs/1s and 4 APs/1s
same,WT Cortical pyramidal neurons APs/1s,[2]; current injected 120 pA,3 APs/1s (2×) and 8 APs/1s and 5 APs/1s
same,WT Cortical pyramidal neurons APs/1s,[2]; current injected 140 pA,3 APs/1s (2×) and 10 APs/1s and 5 APs/1s
same,WT Cortical pyramidal neurons APs/1s,[2]; current injected 160 pA,4 APs/1s and 11 APs/1s and 3 APs/1s and 5 APs/1s
same,WT Cortical pyramidal neurons APs/1s,[2]; current injected 180 pA,3 APs/1s (2×) and 12 APs/1s and 5 APs/1s
same,WT Cortical pyramidal neurons APs/1s,[2]; current injected 200 pA,4 APs/1s (2×) and 13 APs/1s and 5 APs/1s
same,WT Cortical pyramidal neurons APs/1s,[2]; current injected 220 pA,5 APs/1s (2×) and 13 APs/1s and 4 APs/1s
same,WT Cortical pyramidal neurons APs/1s,[2]; current injected 240 pA,4 APs/1s and 14 APs/1s and 3 APs/1s and 5 APs/1s
same,WT Cortical pyramidal neurons APs/1s,[2]; current injected 260 pA,5 APs/1s (2×) and 15 APs/1s and 2 APs/1s
same,WT Cortical pyramidal neurons APs/1s,[2]; current injected 280 pA,5 APs/1s (2×) and 15 APs/1s and 2 APs/1s
same,WT Cortical pyramidal neurons APs/1s,[2]; current injected 300 pA,5 APs/1s (2×) and 16 APs/1s
same,WT Cortical pyramidal neurons APs/1s,[2]; current injected 320 pA,4 APs/1s and 16 APs/1s and 5 APs/1s
same,WT Cortical pyramidal neurons APs/1s,[2]; current injected 340 pA,5 APs/1s and 16 APs/1s and 4 APs/1s
same,WT Cortical pyramidal neurons APs/1s,[2]; current injected 360 pA,15 APs/1s and 5 APs/1s
same,WT Cortical pyramidal neurons APs/1s,[2]; current injected 380 pA,15 APs/1s and 5 APs/1s
same,WT Cortical pyramidal neurons APs/1s,[2]; current injected 400 pA,14 APs/1s and 5 APs/1s
same,WT Cortical pyramidal neurons APs/1s,[2]; current injected 420 pA,14 APs/1s and 4 APs/1s
same,WT Cortical pyramidal neurons APs/1s,[2]; current injected 440 pA,11 APs/1s and 4 APs/1s
same,WT Cortical pyramidal neurons APs/1s,[2]; current injected -20 pA,0 APs/1s
Cc1cc(S(=O)(=O)Nc2cscn2)c(F)cc1N(C)[C@H]1CCN(Cc2ccccc2)C1 [NBI-921352],IC50,[3],39 µM
same,IC50,[4],> 30 µM
